The values that follow come from US20230020663A1, “SULFONAMIDE INHIBITORS AS CTPS1 INHIBITORS” (Step Pharma S.A.S., priority 2019, published 2023).

For this test, the target named is human CTPS1 (Homo sapiens, UniProt P17812). Description: Human CTPS1 enzyme inhibition (ADP-Glo Max assay). On the procedure:
The enzyme inhibitory activities of compounds invented against the target of interest were determined using the ADP-Glo™ Max assay (Promega, UK). Assays for human CTPS1 were performed in 1× assay buffer containing 50 mM Tris, 10 mM MgCl2, 0.01% Tween-20, pH to 8.0 accordingly. Finally, immediately before use, L-cysteine was added to the 1× assay buffer to a final concentration of 2 mM. All reagents are from Sigma-Aldrich unless specified otherwise. Human full length active C-terminal FLAG-Hiss-tag CTPS1 (UniProtKB—P17812, CTPS[1-591]-[…]) was obtained from Proteros biostructures GmbH.
3× human CTPS1 protein was prepared in 1× assay buffer to the final working protein concentration required for the reaction. […] The enzymatic reaction was then initiated by addition of a 2 uL per well volume of a pre-mixed substrate mix (UltraPure ATP from ADP-Glo™ Max kit (0.31 mM), GTP (0.034 mM), UTP (0.48 mM) and L-glutamine (0.186 mM)) and the mixture was incubated for an appropriate amount of time within the determined linear phase of the reaction at 25° C. under sealed plate conditions with constant agitation at 500 revolutions per minute (rpm). ADP-Glo™ Max reagent was added for 60 minutes (6 μL per well) and subsequently ADP-Glo™ Max development reagent was added for 60 minutes (12 uL per well) prior to signal detection in a microplate reader (EnVision® Multilabel Reader, Perkin Elmer). […]
In general terms: In ADP-Glo the light output rises with the ADP produced.

Like-named read-outs stand apart in the source and are kept apart here.

Turning to `CCOc1cnc(-c2ccc(NC(CC)c3ccnc(NS(=O)(=O)C4CC4)n3)cc2)cn1` (centres unmarked), the IC50 (read-out: CTPS1 (Human CTPS1 Enzyme Inhibition data grouped by potency range), Table 24) was in the range of 0.1 to 1 µM.

Take `CC(C)c1cncc(-c2ccc(NC(=O)C(C)(C)c3ccnc(NS(=O)(=O)C4CC4)n3)nc2)n1`: the IC50 (read-out: CTPS1 (Human CTPS1 Enzyme Inhibition data grouped by potency range), Table 23) fell in the range of 0.1 to 1 µM.
